Test results from publication PMC12362594, “Design, Synthesis and Preclinical Evaluation of a Brain-Permeable PET Tracer for P2Y12 Receptor Imaging in the Brain” (Journal of Medicinal Chemistry, 2025).
pIC50: −log10 of the molar value.

By UniProt entry, the sequences of proteins in these tests, tags left out. Where a name states a change or a piece, a line headed by the entry shows the natural chain unless it says otherwise.
UniProt Q9H244: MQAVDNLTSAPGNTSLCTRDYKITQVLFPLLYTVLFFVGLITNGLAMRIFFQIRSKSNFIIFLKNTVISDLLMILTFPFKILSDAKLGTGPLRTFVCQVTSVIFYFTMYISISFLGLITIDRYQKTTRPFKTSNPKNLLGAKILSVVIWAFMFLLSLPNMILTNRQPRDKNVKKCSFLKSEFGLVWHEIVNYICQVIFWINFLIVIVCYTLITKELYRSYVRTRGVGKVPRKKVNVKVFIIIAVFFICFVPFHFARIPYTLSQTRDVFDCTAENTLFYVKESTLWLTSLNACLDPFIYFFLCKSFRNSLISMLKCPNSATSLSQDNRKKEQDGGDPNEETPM

Target: P2Y12R (Homo sapiens, UniProt Q9H244)
Test: cell-based
Settings: IC50, [33P]2-MeSADP competitor; triplicates, mean; footnote b values: three independent experiments, mean ± SD
Experimental: The cell cultures were maintained in an incubator at 37 °C under a humidified and 5% CO2-conditioned atmosphere. Cells were passaged at 80% confluency. For binding assays, cells were harvested with Trypsin-EDTA (5 mL, Gibco) and resuspended in medium. The suspension was centrifuged at 1000g for 5 min and the supernatant was discarded. The cells were adjusted to assay cell concentration (2 × 10^6 cells/mL) by the addition of D-PBS and stored at 37 °C up to 1 h prior to the binding assay.
The mixture was transferred to a 96-well filter plate (1.0 μm glass fiber filter, MultiScreenHTS FB Filter Plate, Merck Millipore, Billercia, MA) and filtered with a vacuum manifold (MultiScreenHTS Vacuum Manifold, Merck Millipore, Billercia, MA). The filters were washed by the addition of cold PBS buffer (4 × 200 μL) and dried at rt for 1 h. Afterward, a punch-tip plate was mounted and the filters were separated into scintillation vials (10 mL) containing scintillation cocktail (4 mL, Rotiszint eco plus LSC-Universalcocktail). […] Bound activity was plotted as a function of ligand concentration in GraphPad Prism 8.0 (GraphPad Software, version 8.4.3., San Diego, CA).

`CCOC(=O)c1cnc(N2CCC(C(=O)NCc3ccc(F)cc3)CC2)c(Cl)c1` [Compound 10, Ethyl 5-Chloro-6-(4-((4-fluorobenzyl)-carbamoyl)-piperidin-1-yl)-nicotinate] showed a pIC50 of 5.94.
